In paper PMC8113980:

How the values were obtained:
[1] = target: Human wildtype tau protein, 441-amino acid isoform (2N4R), nonphosphorylated monomer (human) (UniProt P10636); test: SPR; ProteOn XPR36, GLC chip; tau monomers and tau fibrils immobilised by amine coupling on parallel surfaces; Aβ1–42 monomer or oligomer-enriched solution diluted to 10 μM and injected for 120 s at 30 μl/min; running buffer 10 mM PBS, 150 mM NaCl, 0.005% Tween-20; KD estimated assuming oligomer concentrations of 4 to 20 nM and an aggregate size of 400 kDa, possibly affected by avidity
[2] = target: Aβ_(1–42) high–molecular-weight oligomers (oligomer-enriched solution) (UniProt P05067); test: SPR; competition in solution: Aβ1–42 oligomer-enriched solution diluted to 1 μM in PBS, incubated 10 min with tau (up to 100 nM), injected for 120 s over immobilised anti-Aβ antibody 4G8; oligomer-specific signal read at the end of dissociation
[3] = target: Aβ_(1–42) high–molecular-weight oligomers (oligomer-enriched solution) (UniProt P05067); test: as above; remark: listed apart in the source

Row | Kd [1] | IC50 [2] | IC50 [3] | Substance
1 | < 1 nM |  |  | Aβ_(1–42) high–molecular-weight oligomers (oligomer-enriched solution) (from UniProt P05067 672-713) (complex)
2 |  | 3.9 nM | 3.8 nM | Human wildtype tau protein, 441-amino acid isoform (2N4R), nonphosphorylated monomer (from UniProt P10636-8 1-441) (natural protein)

Read-outs that look alike come from different tables or passages of the source.
